Earlier results as cited in article PMC11642070, “OCTN1 (SLC22A4) as a Target of Heavy Metals: Its Possible Role in Microplastic Threats” (International Journal of Molecular Sciences, 2024).

Set-up: key to the marks not given beside the values
Conditions: according to ATSDR; ref https://www.atsdr.cdc.gov/toxprofiles; cited from earlier work

Substance: Mercury
- Level of Toxicity: +++
